Measurements as given in patent publication USRE49825E1, “Piperidinyl nociceptin receptor compounds” (Astraea Therapeutics, LLC, priority 2015, dated 2024).
Where two headings read alike, the source gives them in different places.

Assays:
[1] = target: nociceptin (NOP) receptor (Homo sapiens, UniProt P41146); test: Radioligand binding assay, [3H]N/OFQ, membranes of CHO cells transfected with human NOP receptor
mu opioid receptor = mu opioid receptor (Homo sapiens, UniProt P35372); test: Radioligand binding assay, [3H]DAMGO, membranes of CHO cells transfected with human mu opioid receptor; conditions: read-out: Receptor Binding Ki (nM) μ, Compounds of Formula (II), CHO cell membranes
kappa opioid receptor = kappa opioid receptor (Homo sapiens, UniProt P41145); test: Radioligand binding assay, [3H]U69593, membranes of CHO cells transfected with human kappa opioid receptor; conditions: read-out: Receptor Binding Ki (nM) κ, Compounds of Formula (II), CHO cell membranes
[2] = read-out: Receptor Binding Ki (nM) NOP, Compounds of Formula (II), CHO cell membranes

**Q.** For CC(C)[C@H]1CC[C@@H](N2CCC(n3c(CCOC(=O)C(C)(C)C)c(CN)c4ccccc43)CC2)CC1 (relative stereo), which Ki [1, 2] is on record?
**A.** < 15 nM

**Q.** And the Ki (mu opioid receptor)?
**A.** < 15 nM

**Q.** With CC(C)[C@H]1CC[C@@H](N2CCC(n3cc(CCCN)c4cc(Cl)ccc43)CC2)CC1 as the compound, how does the Ki [1, 2] read?
**A.** 15 to 150 nM

**Q.** What about the Ki (kappa opioid receptor) of the same compound?
**A.** 150 to 5000 nM

**Q.** What about the Ki (mu opioid receptor) of the same compound?
**A.** 15 to 150 nM

**Q.** CC(C)[C@H]1CC[C@@H](N2CCC(n3cc(CCN)c4cc(F)ccc43)CC2)CC1 was tested. Which Ki [1, 2] did it give?
**A.** < 15 nM

**Q.** What about the Ki (kappa opioid receptor) of the same compound?
**A.** 150 to 5000 nM

**Q.** And the Ki (mu opioid receptor)?
**A.** 15 to 150 nM

**Q.** Which Ki [1, 2] does the source give for CC(C)[C@H]1CC[C@@H](N2CCC(n3cc(CN4CCC(O)CC4)c4ccccc43)CC2)CC1 here?
**A.** 15 to 150 nM

**Q.** What does the source list for CC(C)[C@H]1CC[C@@H](N2CCC(n3c(CO)c(C=NO)c4ccccc43)CC2)CC1?
**A.** Ki [1, 2]: < 15 nM; Ki (kappa opioid receptor): 150 to 5000 nM; Ki (mu opioid receptor): < 15 nM

**Q.** What does the source list for CC(C)[C@H]1CC[C@@H](N2CCC(n3c(CO)cc4cc(F)ccc43)CC2)CC1?
**A.** Ki [1, 2]: < 15 nM; Ki (kappa opioid receptor): 15 to 150 nM; Ki (mu opioid receptor): 15 to 150 nM

**Q.** Which Ki [1, 2] does the source give for CC(C)[C@H]1CC[C@@H](N2CCC(n3cc(C(N)=O)c4ccccc43)CC2)CC1 (relative stereo) here?
**A.** 15 to 150 nM

**Q.** What about the Ki (kappa opioid receptor) of the same compound?
**A.** 150 to 5000 nM

**Q.** What about the Ki (mu opioid receptor) of the same compound?
**A.** 150 to 5000 nM

**Q.** How did the Ki [1, 2] turn out when CC(C)[C@H]1CC[C@@H](N2CCC(n3c(-c4ccc(Cl)cc4)cc4ccccc43)CC2)CC1 (relative stereo) was run?
**A.** 150 to 5000 nM

**Q.** And the Ki (kappa opioid receptor)?
**A.** > 5000 nM

**Q.** And the Ki (mu opioid receptor)?
**A.** 150 to 5000 nM

**Q.** With CC(C)C1CCC(N2CCC(n3c(CCOC(=O)C(C)(C)C)c(/C=N/O)c4ccccc43)CC2)CC1 (centres unmarked) as the compound, how does the Ki [1, 2] read?
**A.** 15 to 150 nM

**Q.** What about the Ki (mu opioid receptor) of the same compound?
**A.** 15 to 150 nM

**Q.** For Cc1ccc2c(c1)cc(CN)n2C1CCN([C@H]2CC[C@@H](C(C)C)CC2)CC1, which Ki [1, 2] is on record?
**A.** < 15 nM

**Q.** And the Ki (kappa opioid receptor)?
**A.** 15 to 150 nM

**Q.** And the Ki (mu opioid receptor)?
**A.** 15 to 150 nM

**Q.** With CC(C)[C@H]1CC[C@@H](N2CCC(n3cc(CN4CC(O)C4)c4ccccc43)CC2)CC1 (relative stereo) as the compound, how does the Ki [1, 2] read?
**A.** 15 to 150 nM

**Q.** For CC(C)[C@H]1CC[C@@H](N2CCC(n3c(CCOC(=O)C(C)(C)C)cc4ccccc43)CC2)CC1, which Ki [1, 2] is on record?
**A.** 15 to 150 nM

**Q.** And the Ki (mu opioid receptor)?
**A.** 15 to 150 nM

**Q.** With CC(C)[C@H]1CC[C@@H](N2CCC(n3cc(CNC(=O)C(N)CCCNC(=N)N)c4ccccc43)CC2)CC1 (some centres unmarked) as the compound, how does the Ki [1, 2] read?
**A.** < 15 nM

**Q.** CC(C)[C@H]1CC[C@@H](N2CCC(n3c(CNC(=O)OCc4ccccc4)cc4cc(F)ccc43)CC2)CC1 (relative stereo) was tested. Which Ki [1, 2] did it give?
**A.** < 15 nM

**Q.** What about the Ki (kappa opioid receptor) of the same compound?
**A.** 15 to 150 nM

**Q.** And the Ki (mu opioid receptor)?
**A.** 15 to 150 nM

**Q.** With CC(=O)NCc1c(/C=N/O)c2ccccc2n1C1CCN(C2CCC(C(C)C)CC2)CC1 (centres unmarked) as the compound, how does the Ki [1, 2] read?
**A.** < 15 nM

**Q.** What about the Ki (kappa opioid receptor) of the same compound?
**A.** 150 to 5000 nM

**Q.** And the Ki (mu opioid receptor)?
**A.** < 15 nM

**Q.** Which results are given for CC(C)[C@H]1CC[C@@H](N2CCC(n3cc(CCNC(N)=S)c4ccccc43)CC2)CC1?
**A.** Ki [1, 2]: 15 to 150 nM; Ki (kappa opioid receptor): 15 to 150 nM; Ki (mu opioid receptor): 150 to 5000 nM

**Q.** With CC(C)[C@H]1CC[C@@H](N2CCC(n3cc(C=NO)c4ccccc43)CC2)CC1 as the compound, how does the Ki [1, 2] read?
**A.** < 15 nM

**Q.** What about the Ki (kappa opioid receptor) of the same compound?
**A.** > 5000 nM

**Q.** What about the Ki (mu opioid receptor) of the same compound?
**A.** 15 to 150 nM

**Q.** How did the Ki [1, 2] turn out when CC(C)[C@H]1CC[C@@H](N2CCC(n3c(CN(C)C(=O)OCc4ccccc4)c(CO)c4ccccc43)CC2)CC1 was run?
**A.** < 15 nM

**Q.** What about the Ki (kappa opioid receptor) of the same compound?
**A.** 150 to 5000 nM

**Q.** And the Ki (mu opioid receptor)?
**A.** < 15 nM

**Q.** With CC(C)[C@H]1CC[C@@H](N2CCC(n3cc(CCCNC(N)=S)c4ccccc43)CC2)CC1 as the compound, how does the Ki [1, 2] read?
**A.** 15 to 150 nM

**Q.** For CC(C)C1CCC(N2CCC(n3c(/C=N/O)cc4ccccc43)CC2)CC1 (centres unmarked), which Ki [1, 2] is on record?
**A.** < 15 nM

**Q.** And the Ki (kappa opioid receptor)?
**A.** 15 to 150 nM

**Q.** And the Ki (mu opioid receptor)?
**A.** 15 to 150 nM

**Q.** With CC(C)[C@H]1CC[C@@H](N2CCC(n3c(C(C#N)Nc4ccccc4)cc4ccccc43)CC2)CC1 (some centres unmarked) as the compound, how does the Ki [1, 2] read?
**A.** < 15 nM

**Q.** And the Ki (kappa opioid receptor)?
**A.** 15 to 150 nM

**Q.** What about the Ki (mu opioid receptor) of the same compound?
**A.** 15 to 150 nM

**Q.** CC(C)[C@H]1CC[C@@H](N2CCC(n3cc(CN4CCc5ccccc54)c4ccccc43)CC2)CC1 (relative stereo) was tested. Which Ki [1, 2] did it give?
**A.** 150 to 5000 nM

**Q.** What about the Ki (mu opioid receptor) of the same compound?
**A.** 150 to 5000 nM

**Q.** CC(C)[C@H]1CC[C@@H](N2CCC(n3cc(CN4CCCC4)c4ccccc43)CC2)CC1 [Compound 65, 1-(1-(cis-4-isopropylcyclohexyl)piperidin-4-yl)-3-(pyrrolin-1-ylmethyl)-1H-indole] was tested. Which Ki [1, 2] did it give?
**A.** < 15 nM

**Q.** For CC(C)[C@H]1CC[C@@H](N2CCC(n3cc(/C=C/C#N)c4ccccc43)CC2)CC1, which Ki [1, 2] is on record?
**A.** 15 to 150 nM

**Q.** And the Ki (kappa opioid receptor)?
**A.** 150 to 5000 nM

**Q.** And the Ki (mu opioid receptor)?
**A.** 150 to 5000 nM

**Q.** With CC(C)[C@H]1CC[C@@H](N2CCC(n3c(CNC(=O)OCc4ccccc4)c(CO)c4ccccc43)CC2)CC1 (relative stereo) as the compound, how does the Ki [1, 2] read?
**A.** < 15 nM

**Q.** And the Ki (kappa opioid receptor)?
**A.** 15 to 150 nM

**Q.** And the Ki (mu opioid receptor)?
**A.** < 15 nM

**Q.** Cc1ccc(S(=O)(=O)NCc2cc3ccccc3n2C2CCN([C@H]3CC[C@@H](C(C)C)CC3)CC2)cc1 (relative stereo) was tested. Which Ki [1, 2] did it give?
**A.** 15 to 150 nM

**Q.** What about the Ki (kappa opioid receptor) of the same compound?
**A.** 15 to 150 nM

**Q.** And the Ki (mu opioid receptor)?
**A.** < 15 nM

**Q.** For CC(C)(O)[C@H]1CC[C@@H](N2CCC(n3c(CO)cc4ccccc43)CC2)CC1, which Ki [1, 2] is on record?
**A.** 15 to 150 nM

**Q.** And the Ki (kappa opioid receptor)?
**A.** > 5000 nM

**Q.** What about the Ki (mu opioid receptor) of the same compound?
**A.** 150 to 5000 nM

**Q.** Which Ki [1, 2] does the source give for CC(C)[C@H]1CC[C@@H](N2CCC(n3cc(CCCN)c4cc(F)ccc43)CC2)CC1 here?
**A.** 15 to 150 nM

**Q.** And the Ki (kappa opioid receptor)?
**A.** > 5000 nM

**Q.** And the Ki (mu opioid receptor)?
**A.** 15 to 150 nM

**Q.** What does the source list for CC(C)[C@H]1CC[C@@H](N2CCC(n3cc(CNCc4ccccc4)c4ccccc43)CC2)CC1?
**A.** Ki [1, 2]: 150 to 5000 nM; Ki (mu opioid receptor): 150 to 5000 nM

**Q.** For CC(C)[C@H]1CC[C@@H](N2CCC(n3cc(CNCCO)c4ccccc43)CC2)CC1, which Ki [1, 2] is on record?
**A.** 15 to 150 nM

**Q.** How did the Ki ([1]; read-out: Receptor Binding Ki (nM) NOP, Compounds of Formula (III), CHO cell membranes) turn out when CC(C)C(=O)NC1C(=O)N(C2CCN([C@H]3CC[C@@H](C(C)C)CC3)CC2)c2ccccc21 (some centres unmarked) was run?
**A.** < 15 nM
